This assay concerns H1N1 virus (wsn/33). In kind it is cell-based, Influenza A H1N1 wsn/33.

Where “and” joins values, the source holds several entries; their conditions need not be identical. Equal values may be shown once.

Take `COc1ccc2cc(C(C)C(=O)O)ccc2c1` (stereo not shown) [Naproxen]: the Protection % is 48 ± 2% and 47 ± 2%.

The values are drawn from patent US20180028478A1, “ANTIVIRAL COMPOSITIONS DIRECTED AGAINST THE NUCLEOPROTEIN OF INFLUENZA VIRUSES” (priority 2011, published 2018).
